Biological target: D(2) dopamine receptor (Rattus norvegicus, UniProt P61169)

By UniProt entry, the sequences of proteins in these tests, tags left out.
UniProt P61169, whole entry: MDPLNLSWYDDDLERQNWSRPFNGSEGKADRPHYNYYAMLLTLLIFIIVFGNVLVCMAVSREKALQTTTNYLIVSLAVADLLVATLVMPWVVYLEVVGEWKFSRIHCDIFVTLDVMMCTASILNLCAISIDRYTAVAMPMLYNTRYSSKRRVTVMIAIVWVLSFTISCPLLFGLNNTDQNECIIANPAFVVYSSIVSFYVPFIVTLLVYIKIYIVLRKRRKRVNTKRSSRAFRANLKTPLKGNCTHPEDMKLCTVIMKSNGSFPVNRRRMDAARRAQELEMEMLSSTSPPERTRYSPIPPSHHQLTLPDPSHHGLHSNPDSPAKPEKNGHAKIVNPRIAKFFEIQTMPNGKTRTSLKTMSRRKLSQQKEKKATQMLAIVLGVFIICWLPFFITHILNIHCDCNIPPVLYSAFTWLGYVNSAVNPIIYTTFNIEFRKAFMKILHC

Ki: 226 nM
Structure (SMILES): Cc1ccccc1C1CN(C)CCc2c1cc(O)c(O)c2Cl (stereo unspecified) [NSC_0]
